Experimental data: patent EP4837906A1, “NOVEL COMPOUND USED AS CBP/PA300 INHIBITOR, AND PHARMACEUTICAL COMPOSITION FOR PREVENTING OR TREATING CANCER, INFLAMMATORY DISORDERS, OR AUTOIMMUNE DISEASES COMPRISING SAME AS ACTIVE INGREDIENT” (dated 2026)

Protein sequences, listed by entry. Tags and fused reporters are not part of them. Residues count along the entry.
UniProt Q92793, 1085-1192 limits assumed: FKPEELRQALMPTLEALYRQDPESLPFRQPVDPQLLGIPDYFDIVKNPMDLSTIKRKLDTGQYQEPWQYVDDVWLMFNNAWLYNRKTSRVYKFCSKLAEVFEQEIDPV

How the values were obtained:
[1] = target: CBP BRD protein (Homo sapiens, UniProt Q92793); experiment: CBP inhibitory activity, TR-FRET assay of CBP bromodomain with Ac-H4 peptide; settings: read-out: CBP BRD IC50, CBP BRD protein 7.5 nM, Ac-H4 peptide 85 nM, 2 hours at room temperature
Method: CBP inhibitory activity was measured using a time resolved fluorescence resonance energy transfer (TR-FRET) experiment to verify the activity of CBP bromodomain.
(§1) The assay was performed in a final volume of 14 µl, optimized based on a CREBBP time resolved fluorescence resonance energy transfer (TR-FRET) assay kit (BPS Bioscience, cat. 32619) to maximize an assay window, and performed in a final volume of 14 µl, while maximizing the assay window. A TR-FRET fluorescence acceptor and a Tb donor were diluted in an assay buffer containing 2-[4-(2-hydroxyethyl)piperazin-1-yl]ethanesulfonic acid (hereafter, referred to as an assay buffer, BPS Bioscience, cat. 33012), and 3 µl of each solution was transferred to all wells of a white 384-low-volume well plate (Corning, cat. 4513). 2 µl of 4X Ac-H4 peptide (final concentration 85 nM) was transferred to high control wells and test wells. Each compound was prepared at 10 concentration points by serially diluting 3-fold from the highest concentration in a dimethyl sulfoxide solvent. The compound at each concentration was then diluted in the assay buffer to prepare a diluted compound solution that was 4-fold more concentrated than the final concentration. 2 µl of each compound or dimethyl sulfoxide prepared in this way was distributed into an assay plate so that the final test concentration was a minimum of 0.5 µM to a maximum of 10 µM (final dimethyl sulfoxide concentration 1%). 6 µL of 1X assay buffer was added to low control wells and 2 µl was added to high control and test wells. Then, 2 µl of 4X CBP BRD protein (final concentration 7.5 nM, BPS bioscience, cat 31128) was added to initiate a PPI reaction. The plate was reacted at room temperature for 2 hours before measuring the signal. The TR-FRET signal was measured using an EnVision Multilabel plate reader (PerkinElmer; Mirror LNACE/DELFIA Dual/Bias).
For data analysis, the values of each well were obtained using a TR-FRET ratio ((Signal 665 nm/Signal 615 nm)X20000. Data analysis was performed using the TR-FRET ratio ((Signal 665 nm/Signal 615 nm)X20000. Data were reported as percent inhibition compared to control wells based on the following equation: %Activity = ((FRETcompound - FRETLow av)/(FRETHigh av - FRETLow av))X100. IC50 analysis was determined by standard 4 parameter curve fitting according to an algorithm using GraphPad Prism 7.0 (GraphPad Software Inc., La Jolla, CA, USA). All data are expressed as mean ± standard error of the mean (SEM).

[2] = target: BRD4 (BD1) protein (Homo sapiens, UniProt O60885); experiment: BRD4 inhibitory activity, TR-FRET assay of BRD4 bromodomain with Ac-H4 peptide; settings: read-out: BRD4 (BD1) IC50, BRD4 (BD1) protein 7.5 nM, Ac-H4 peptide 15 nM, 2 hours at room temperature
Method: BRD4 inhibitory activity was measured using a time resolved fluorescence resonance energy transfer (TR-FRET) experiment to verify the activity of BRD4 bromodomain.
as §1, with “32613)” for “32619)”, “15” for “85”, “BRD4 (BD1)” for “CBP BRD”, “31040)” for “31128)”, “Dual/Bias). For data analysis, the values of each well were obtained using a TR-FRET ratio ((Signal 665 nm/Signal 615 nm) X20000. Data analysis was performed using the TR-FRET ratio ((Signal 665 nm/Signal 615 nm) X20000. Data were reported as percent inhibition compared to control wells based on the following equation: %Activity = ((FRETcompound - FRETLow av)/(FRETHigh av - FRETLow av)) X100. IC50 analysis was determined by standard 4 parameter curve fitting according to an algorithm using GraphPad Prism 7.0 (GraphPad Software Inc., La Jolla, CA, USA). All data are expressed as mean ± standard error of the mean (SEM).” for “Dual/Bias).”

IC50 [1] [µM]	IC50 [2] [µM]	SMILES
< 0.5	0.5 to 5	CNC(=O)c1ccc(-c2ccc3c(c2)nc(-c2cncn2C)n3-c2ccc3c(c2)n(C)c(=O)n3C)cc1Cl
< 0.5	0.5 to 5	Cn1cncc1-c1nc2cc(-c3cccc(N)c3)ccc2n1-c1ccc2c(c1)n(C)c(=O)n2C
< 0.5	> 5	CNC(=O)c1ccc(-c2ccc3c(c2)nc(-c2cccc(F)c2C)n3-c2ccc3c(c2)n(C)c(=O)n3C)cc1F
0.5 to 5	> 5	Cn1cncc1-c1nc2cc(-c3ccc(NC(=O)OC(C)(C)C)cc3)ccc2n1-c1ccc2c(c1)n(C)c(=O)n2C
0.5 to 5	> 5	Cn1cncc1-c1nc2cc(-c3cncnc3)ccc2n1-c1ccc2c(c1)n(C)c(=O)n2C
< 0.5	> 5	Cn1cncc1-c1nc2cc(-c3cccc(O)c3)ccc2n1-c1ccc2c(c1)n(C)c(=O)n2C
0.5 to 5	> 5	CNC(=O)c1ccc2c(c1)nc(-c1cncn1C)n2-c1ccc2c(c1)n(C)c(=O)n2C
0.5 to 5	> 5	CNC(=O)c1ccc(-c2ccc3c(c2)nc(-c2ccnc(O)c2)n3-c2ccc3c(c2)n(C)c(=O)n3C)cc1F
> 5	0.5 to 5	CNC(=O)c1ccc(-c2ccc3c(c2)nc(-c2ccc(O)nc2)n3-c2ccc3c(c2)n(C)c(=O)n3C)cc1F
> 5	> 5	Cn1cncc1-c1nc2cc(C(N)=NO)ccc2n1-c1ccc2c(c1)n(C)c(=O)n2C
< 0.5	> 5	CN(C)c1ccc(-c2ccc3c(c2)nc(-c2cncn2C)n3-c2ccc3c(c2)n(C)c(=O)n3C)cc1
> 5	> 5	CNC(=O)c1ccc(-c2ccc3c(c2)nc(CC2CCCCC2)n3-c2ccc3c(c2)n(C)c(=O)n3C)cc1F
< 0.5	> 5	Cn1cncc1-c1nc2cc(-c3ccncc3)ccc2n1-c1ccc2c(c1)n(C)c(=O)n2C
0.5 to 5	> 5	Cc1ccc2c(-c3nc4cc(C5CCNCC5)ccc4n3-c3ccc4c(c3)n(C)c(=O)n4C)c[nH]c2c1
< 0.5	> 5	CC(=O)Nc1cccc(-c2ccc3c(c2)nc(-c2cncn2C)n3-c2ccc3c(c2)n(C)c(=O)n3C)c1
0.5 to 5	> 5	Cn1cncc1-c1nc2cc(-c3cn(CC(=O)N4CCCCC4)nn3)ccc2n1-c1ccc2c(c1)n(C)c(=O)n2C
> 5	> 5	CNC(=O)c1ccc(-c2ccc3c(c2)nc(-c2ccccn2)n3-c2ccc3c(c2)n(C)c(=O)n3C)cc1F
0.5 to 5	> 5	CNC(=O)c1ccc(-c2ccc3c(c2)nc(C(C)(C)OC)n3-c2ccc3c(c2)n(C)c(=O)n3C)cc1F
0.5 to 5	> 5	Cn1cncc1-c1nc2cc(-c3ccoc3)ccc2n1-c1ccc2c(c1)n(C)c(=O)n2C
0.5 to 5	> 5	Cn1cncc1-c1nc2cc(-c3cnn(CC(F)(F)F)c3)ccc2n1-c1ccc2c(c1)n(C)c(=O)n2C
< 0.5	0.5 to 5	Cn1cncc1-c1nc2cc(-c3ccnc(N)c3)ccc2n1-c1ccc2c(c1)n(C)c(=O)n2C
0.5 to 5	> 5	Cn1cncc1-c1nc2cc(-c3cn(CC(=O)NCc4ccccc4)nn3)ccc2n1-c1ccc2c(c1)n(C)c(=O)n2C

IC50 [1] [µM]	IC50 [2] [µM]	SMILES
< 0.5	> 5	Cn1cncc1-c1nc2cc(-c3ccc4[nH]cnc4c3)ccc2n1-c1ccc2c(c1)n(C)c(=O)n2C
< 0.5	> 5	Cn1cncc1-c1nc2cc(-c3nc(=O)o[nH]3)ccc2n1-c1ccc2c(c1)n(C)c(=O)n2C
< 0.5	> 5	Cn1cncc1-c1nc2cc(-c3ccc(C(N)=O)cc3)ccc2n1-c1ccc2c(c1)n(C)c(=O)n2C
0.5 to 5	0.5 to 5	CNC(=O)c1cc(-c2ccc3c(c2)nc(-c2cncn2C)n3-c2ccc3c(c2)n(C)c(=O)n3C)ccc1F
> 5	> 5	CNS(=O)(=O)c1ccc2c(c1)nc(-c1cncn1C)n2-c1ccc2c(c1)n(C)c(=O)n2C
0.5 to 5	> 5	CNC(=O)c1ccc(-c2ccc3c(c2)nc(-c2cncnc2)n3-c2ccc3c(c2)n(C)c(=O)n3C)cc1F
< 0.5	> 5	Cn1cncc1-c1nc2cc(-c3ccc(N)nc3)ccc2n1-c1ccc2c(c1)n(C)c(=O)n2C
< 0.5	> 5	Cn1cncc1-c1nc2cc(-c3ccc(O)cc3)ccc2n1-c1ccc2c(c1)n(C)c(=O)n2C
0.5 to 5	> 5	Cn1cncc1-c1nc2cc(-c3cn(CC(=O)O)nn3)ccc2n1-c1ccc2c(c1)n(C)c(=O)n2C
> 5	> 5	CNC(=O)c1ccc(-c2ccc3c(c2)nc(C2CCN(C(=O)OC(C)(C)C)CC2)n3-c2ccc3c(c2)n(C)c(=O)n3C)cc1F
< 0.5	> 5	CNC(=O)c1ccc(-c2ccc3c(c2)nc(-c2cccc4c2CCCC4)n3-c2ccc3c(c2)n(C)c(=O)n3C)cc1F
> 5	> 5	CNC(=O)c1ccc(-c2ccc3c(c2)nc(-c2ccc(F)cc2)n3-c2ccc3c(c2)n(C)c(=O)n3C)cc1F
0.5 to 5	> 5	Cn1cncc1-c1nc2cc(-c3ccc(C=O)o3)ccc2n1-c1ccc2c(c1)n(C)c(=O)n2C
< 0.5	0.5 to 5	Cc1cc(-c2ccc3c(c2)nc(-c2cncn2C)n3-c2ccc3c(c2)n(C)c(=O)n3C)ccn1
0.5 to 5	> 5	CNC(=O)c1ccc(-c2ccc3c(c2)nc(-c2cccc(C)c2)n3-c2ccc3c(c2)n(C)c(=O)n3C)cc1F
> 5	> 5	CNC(=O)c1ccc(-c2ccc3c(c2)nc(C(C)(C)C(=O)Nc2ccccc2)n3-c2ccc3c(c2)n(C)c(=O)n3C)cc1F
0.5 to 5	> 5	CNC(=O)c1ccc(-c2ccc3c(c2)nc(C2CC2)n3-c2ccc3c(c2)n(C)c(=O)n3C)cc1F
0.5 to 5	> 5	CNC(=O)c1ccc(-c2ccc3c(c2)nc(-c2cnn(C)c2)n3-c2ccc3c(c2)n(C)c(=O)n3C)cc1F
< 0.5	> 5	Cn1cncc1-c1nc2cc(C3=NCCS3)ccc2n1-c1ccc2c(c1)n(C)c(=O)n2C
< 0.5	> 5	Cn1cncc1-c1nc2cc(-c3ccc(CO)cc3)ccc2n1-c1ccc2c(c1)n(C)c(=O)n2C
0.5 to 5	> 5	CNC(=O)c1ccc(-c2ccc3c(c2)nc(-c2cccc(Cl)c2)n3-c2ccc3c(c2)n(C)c(=O)n3C)cc1F
0.5 to 5	> 5	Cn1cncc1-c1nc2cc(-c3ccc(F)cc3)ccc2n1-c1ccc2c(c1)n(C)c(=O)n2C
